Screening data as filed in PubChem BioAssay.
Rows were chosen to be rich in hits. Some 4.2% of all compounds tested hit in one or more screens of this group.
NALP1 yeast inh: blocks the NALP1 inflammasome reconstituted in yeast. S. cerevisiae NALP1/ASC/caspase-1 growth, X-gal OD620, 72 h. inhibition, % at 10 µM. actives 0.61% (n = 280,000). AID 2071; in the data active means inhibition mostly above about 24%, no sharp cut-off; inactive means mostly below about 32%
MC4R antag cAMP: blocks human MC4R cAMP signaling. AID 540295. actives 0.48% (n = 360,000). P32245. inhibition, % at 6.5 µM. MC4R-expressing cells, MTII-stimulated cAMP, LANCE TR-FRET;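 active means inhibition above its plate's cutoff, the mean of tested wells on that plate plus 3 SD, cut at about 29% in these data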
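Assay system: U2OS cells stably expressing human melanocortin 4 receptor (MC4R) / Dosing: 6.5 µM / Timing: compound 30 min, challenge 1 h, detection 1 h / Measured by: Eu-cAMP/anti-cAMP TR-FRET, emission 671 nm / Replicates: singlicate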
ALR H2O2 inh: inhibitors of human sulfhydryl oxidase ALR; AID 485317; inhibition, % (no concentration beside the values); purified ALR, DTT oxidation, H2O2 HRP-luminol luminescence; hit rate 3.8% among 290,000;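 active means mean and each replicate at 75% or more; inconclusive means only one of the two met; inactive means neither met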;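 further: stock transfer was 7.5 nL into about 7.5 µL; 0% = neutral wells and 100% = wells with inactivated enzyme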
HDAC3 inh: inhibitors of human histone deacetylase 3. O15379. recombinant HDAC3, fluorogenic peptide/trypsin coupled, fluorescence. inhibition, % at 8.3 µM. actives 0.15% (n = 320,000); in the data active means inhibition above about 26%, passing the limit was not always enough
MC4R barr agon: agonists of human melanocortin 4 receptor (MC4R) beta-arrestin. U2OS MC4R beta-arrestin complementation, luminescence; percent of melanotan II response, DMSO zero. activation, % at 8.9 µM. actives 0.98% (n = 360,000). AID 540308;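 active means activation above a per-plate cutoff, the mean activation of sample wells on that plate plus 3 SD, cut at about 8% in these data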
UUG fidelity: yeast start codon fidelity modulation; AID 602363; activity score, % at 18.7 µM; S. cerevisiae UUG-firefly luciferase reporter, luminescence/redox ratio; 0.13% of 350,000 active;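 active means replicate mean at a twofold rise or more, about +100% in these data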;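 further: firefly luciferase made from a UUG start codon reports start codon fidelity; reporter light over untreated wells divided by growth signal over untreated wells; some hits fall short of that in this replicate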
Each line names hits and unclear results; the compound was inactive in the other large screens.

Cn1ccnc1SCC(=O)Nc1cc(S(=O)(=O)N2CCOCC2)ccc1Cl	ALR H2O2 inh 98 (no result: UUG fidelity)
O=C(C[C@H]1CC[C@H]2[C@@H](COC[C@@H](O)CN2Cc2ccc(Oc3ccccc3)cc2)O1)N1CCCCC1	none (no result: NALP1 yeast inh, MC4R antag cAMP, ALR H2O2 inh, HDAC3 inh, MC4R barr agon)
NC(=O)[C@@H]1[C@H]2C(=O)O[C@H](c3ccccc3)[C@H](c3ccccc3)N2[C@H](c2ccc(O)cc2)[C@@]12C(=O)Nc1ccc(C#CC3=CCCCC3)cc12	none (no result: NALP1 yeast inh, MC4R antag cAMP, ALR H2O2 inh, HDAC3 inh, MC4R barr agon)
COc1ccc(/C=C2\SC(=O)N(CC(=O)Nc3ccc(F)cc3)C2=O)cc1O	MC4R barr agon 9.2
COc1ccc(/C=C2\SC(=O)N(CC(=O)Nc3cccnc3)C2=O)cc1OC	none
Cc1ncc(CO)c(CNc2ccc(Oc3ccccc3)cc2)c1O	ALR H2O2 inh 98
S=C(NCc1cccnc1)Nc1ccc(Oc2ccccc2)cc1	none (no result: UUG fidelity)
CCOc1cc(/C=C/c2cc(C(F)(F)F)[nH]c(=O)n2)ccc1O	ALR H2O2 inh 99 (no result: UUG fidelity)
COc1ccc(/C=C/c2cc(C(F)(F)F)[nH]c(=O)n2)cc1OC	none (no result: UUG fidelity)
CCOc1cc(/C=C/c2ccc3cccc([N+](=O)[O-])c3n2)ccc1OCC(=O)N(C)C	none (no result: UUG fidelity)
CCOc1cc(/C=C/c2ccc3cccc([N+](=O)[O-])c3n2)ccc1O	ALR H2O2 inh 94
O=C(C[C@@H]1C[C@H]2c3cc(NC(=O)NC4CCCCC4)ccc3O[C@H]2[C@H](CO)O1)NCC1CC1	none (no result: NALP1 yeast inh, MC4R antag cAMP, ALR H2O2 inh, HDAC3 inh, MC4R barr agon)
COCC#Cc1ccc2c(c1)O[C@H](CN(C)S(C)(=O)=O)[C@H](C)CN([C@@H](C)CO)S2(=O)=O	none (no result: NALP1 yeast inh, MC4R antag cAMP, ALR H2O2 inh, HDAC3 inh, MC4R barr agon)
COc1ccc(/C=N/Nc2nc(C)c([N+](=O)[O-])c(N(C)c3ccccc3)n2)cc1OC	MC4R barr agon 20 (no result: UUG fidelity)
CC(=O)Nc1ccc(Nc2nc(C)c([N+](=O)[O-])c(N(C)c3ccccc3)n2)cc1	none (no result: UUG fidelity)
O/N=C(\Cc1cscn1)c1ccc(O)cc1O	ALR H2O2 inh 82 (no result: UUG fidelity)
Cc1ccc(/C=C/C(=O)c2ccccc2)cc1	ALR H2O2 inh 97
Cc1ccc(C(=O)/C=C/C(=O)O)cc1	ALR H2O2 inh 98
O=C(/C=C/c1ccc(OC2CSC2)cc1)c1ccccc1	ALR H2O2 inh 83
Cc1nc2ccccn2c1C(=O)/C=C/c1cccc([N+](=O)[O-])c1	none (no result: UUG fidelity)
Cc1ccc(/C=C/C(=O)c2c(C)nc3ccccn23)cc1	ALR H2O2 inh 98
C[C@@H]1CCCCO[C@H](CN(C)C)[C@H](C)CN([C@H](C)CO)C(=O)c2cc(NC(=O)Nc3ccc(C(F)(F)F)cc3)ccc2O1	none (no result: NALP1 yeast inh, MC4R antag cAMP, ALR H2O2 inh, HDAC3 inh, MC4R barr agon)
C[C@H](O)C#Cc1ccc2c(c1)O[C@@H](CN(C)C(=O)Nc1ccccc1)[C@@H](C)CN([C@@H](C)CO)S2(=O)=O	none (no result: NALP1 yeast inh, MC4R antag cAMP, ALR H2O2 inh, HDAC3 inh, MC4R barr agon)
CSc1ccc(/C=C/C(=O)c2ccc(O)cc2)cc1	NALP1 yeast inh 59 (no result: UUG fidelity)
Cc1ccc(S(=O)(=O)Nc2ccc3c(c2)C(=O)N([C@@H](C)CO)C[C@@H](C)[C@@H](CN(C)C(=O)CCC(F)(F)F)OCCCC[C@@H](C)O3)cc1	none (no result: NALP1 yeast inh, MC4R antag cAMP, ALR H2O2 inh, HDAC3 inh, MC4R barr agon)
Fc1ccc(CSc2nnc(-c3cnccn3)n2Cc2ccco2)cc1	ALR H2O2 inh 87
C[C@@H]1CN([C@@H](C)CO)C(=O)c2cc(-c3ccccc3F)cnc2O[C@H]1CN(C)Cc1ccc(F)cc1	none (no result: NALP1 yeast inh, MC4R antag cAMP, ALR H2O2 inh, HDAC3 inh, MC4R barr agon)
CC(C)(C)c1cc(CSC(=S)NC2CCS(=O)(=O)C2)c(Br)c(C(C)(C)C)c1 (stereo not given)	none (no result: ALR H2O2 inh)
O=S1(=O)CC=C(CSC(=S)NC2CCS(=O)(=O)C2)C1 (stereo not given)	ALR H2O2 inh 99 (no result: UUG fidelity)
CO[C@H]1CN(C)C(=O)c2ccc(NS(=O)(=O)c3ccccc3C)cc2OC[C@@H](C)N(S(C)(=O)=O)C[C@@H]1C	none (no result: NALP1 yeast inh, MC4R antag cAMP, ALR H2O2 inh, HDAC3 inh, MC4R barr agon)
N#CC1=C(N)N(c2ccccc2)C(c2ccco2)C1(C#N)C#N (stereo not given)	ALR H2O2 inh 94
Cc1cccc(N2C(N)=C(C#N)C(C#N)(C#N)C2c2ccccc2)c1 (stereo not given)	none (no result: NALP1 yeast inh)
CN(C)CCN1C(=O)C(=O)/C(=C(/O)c2ccc(OCc3ccccc3)cc2)C1c1ccncc1 (stereo not given)	NALP1 yeast inh 35 (no result: ALR H2O2 inh, HDAC3 inh)
O=C(O)c1cc(N/N=C/c2ccc(-c3ccc(F)cc3)o2)ccc1Cl	ALR H2O2 inh 98
O=C(O)c1cc(N/N=C/c2ccc3c(c2)OCCO3)ccc1Cl	ALR H2O2 inh 93 (no result: UUG fidelity)
